Measured values: paper PMC5643385, “Probing ligand recognition of the opioid pan antagonist AT-076 at nociceptin, kappa, mu, and delta opioid receptors through structure-activity relationships” (Scientific Reports, 2017)

Chains of the proteins cited; added tags and fusions are not shown. Lines headed by an entry give the natural chain unless they say otherwise; changes in a name come on top.
UniProt P41143, whole entry, looked up: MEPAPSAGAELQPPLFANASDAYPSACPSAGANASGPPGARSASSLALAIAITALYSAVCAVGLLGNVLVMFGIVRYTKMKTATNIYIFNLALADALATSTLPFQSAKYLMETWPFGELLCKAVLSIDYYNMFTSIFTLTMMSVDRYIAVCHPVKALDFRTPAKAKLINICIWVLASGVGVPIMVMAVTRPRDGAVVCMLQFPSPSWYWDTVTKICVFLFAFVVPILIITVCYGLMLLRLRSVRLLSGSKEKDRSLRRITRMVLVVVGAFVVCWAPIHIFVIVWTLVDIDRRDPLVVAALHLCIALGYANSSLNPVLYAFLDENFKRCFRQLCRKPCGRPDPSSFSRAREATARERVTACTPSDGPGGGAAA
UniProt P35372, whole entry, looked up: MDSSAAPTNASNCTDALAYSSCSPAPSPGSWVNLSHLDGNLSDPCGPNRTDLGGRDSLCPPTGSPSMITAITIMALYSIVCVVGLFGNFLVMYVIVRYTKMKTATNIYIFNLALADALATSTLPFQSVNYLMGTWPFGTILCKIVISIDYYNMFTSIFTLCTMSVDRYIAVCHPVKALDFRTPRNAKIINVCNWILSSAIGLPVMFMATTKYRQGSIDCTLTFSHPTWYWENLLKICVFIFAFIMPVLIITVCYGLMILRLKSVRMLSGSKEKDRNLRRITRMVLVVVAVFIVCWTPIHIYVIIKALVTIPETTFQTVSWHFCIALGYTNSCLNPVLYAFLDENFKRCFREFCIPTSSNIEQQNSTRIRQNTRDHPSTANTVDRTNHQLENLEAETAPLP
UniProt P41146: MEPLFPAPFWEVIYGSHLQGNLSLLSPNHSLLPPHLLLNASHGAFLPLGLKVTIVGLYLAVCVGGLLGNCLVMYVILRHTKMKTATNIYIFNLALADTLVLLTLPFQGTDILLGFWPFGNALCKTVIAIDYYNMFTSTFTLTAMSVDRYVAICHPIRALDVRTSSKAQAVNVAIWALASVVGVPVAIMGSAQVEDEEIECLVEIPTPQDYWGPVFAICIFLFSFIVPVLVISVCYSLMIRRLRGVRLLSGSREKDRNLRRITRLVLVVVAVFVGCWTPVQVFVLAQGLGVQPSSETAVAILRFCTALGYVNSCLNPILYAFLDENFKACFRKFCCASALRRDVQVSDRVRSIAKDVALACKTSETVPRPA
UniProt P41145: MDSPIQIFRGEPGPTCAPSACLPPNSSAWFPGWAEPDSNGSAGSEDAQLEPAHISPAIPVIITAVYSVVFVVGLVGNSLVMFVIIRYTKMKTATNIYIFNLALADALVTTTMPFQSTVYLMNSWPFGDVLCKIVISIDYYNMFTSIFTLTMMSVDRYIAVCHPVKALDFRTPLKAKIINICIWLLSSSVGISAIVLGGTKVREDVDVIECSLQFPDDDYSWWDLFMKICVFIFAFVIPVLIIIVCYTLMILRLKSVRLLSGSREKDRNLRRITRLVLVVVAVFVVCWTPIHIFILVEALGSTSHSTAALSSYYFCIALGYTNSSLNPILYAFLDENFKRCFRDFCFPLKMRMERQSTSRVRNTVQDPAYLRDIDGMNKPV

What was measured:
human DOP receptor = human DOP receptor (Homo sapiens, UniProt P41143); test: Radioligand competition binding, [3H]DPDPE, membranes of transfected CHO cells; details: read-out: Receptor Binding, Ki DOP; [3H]DPDPE displacement; Cheng-Prusoff; mean ± SEM, at least three experiments in triplicate
human MOP receptor [1] = target: T1, human MOP receptor (Homo sapiens, UniProt P35372); test: [35S]GTPγS functional assay (intrinsic activity; Schild analysis vs DAMGO); format: biochemical; details: inhibition of agonist-induced [35S]GTPγS binding
human MOP receptor [2] = target: T1, human MOP receptor; test: Radioligand competition binding, [3H]DAMGO, membranes of transfected CHO cells; details: read-out: Receptor Binding, Ki MOP; [3H]DAMGO displacement; Cheng-Prusoff; mean ± SEM, at least three experiments in triplicate
human NOP receptor = human NOP receptor (Homo sapiens, UniProt P41146); test: Radioligand competition binding, [3H]N/OFQ, membranes of transfected CHO cells; details: read-out: Receptor Binding, Ki NOP; [3H]N/OFQ displacement; Cheng-Prusoff; mean ± SEM, at least three experiments in triplicate
human KOP receptor [3] = target: T2, human KOP receptor (Homo sapiens, UniProt P41145); test: Radioligand competition binding, [3H]U69,593, membranes of transfected CHO cells (Kappa-CN); details: for Ki: read-out: Receptor Binding, Ki KOP, [3H]U69,593 displacement, Cheng-Prusoff, mean ± SEM, at least three experiments in triplicate
human KOP receptor [4] = target: T2, human KOP receptor; details: Schild analysis, inhibition of agonist-induced [35S]GTPγS binding

CC(C)[C@@H](CN1CCC(N2C(=O)Cc3ccccc32)CC1)NC(=O)[C@H]1Cc2ccc(O)cc2CN1
Ki (human DOP receptor): 249 nM
Antagonist Potency (pA2 ± SEM) MOP (human MOP receptor [1]): 7.98
Ki (human MOP receptor [2]): 19.1 nM
Ki (human NOP receptor): 91.2 nM
Ki (human KOP receptor [3]): 2.6 nM
Reduction of KOP affinity compared to 16 (human KOP receptor [3]; vs 16): 10 fold
Antagonist Potency (pA2 ± SEM) KOP (human KOP receptor [4]): 9.19 ± 0.16

CC(C)[C@@H](CN1CCC(N2CCc3ccccc32)CC1)NC(=O)[C@H]1Cc2ccc(O)cc2CN1
Antagonist Potency (pA2 ± SEM) MOP (human MOP receptor [1]): 8.32
Ki (human MOP receptor [2]): 7.68 nM
Ki (human KOP receptor [3]): 0.371 nM
Higher KOP affinity than AT-076 (human KOP receptor [3]; vs AT-076): 2–4 fold
